Test system: Tyrosine-protein kinase ABL1 (Homo sapiens), P00519 [T315I]
Conditions: dose 10.0 nM, time 2.5 hrs

Cc1ccc(C(=O)Nc2ccc3c(c2)C(F)(F)C[C@@H]3N2CCN(C)CC2)cc1C#Cc1cnc2cccnn12
inhibition: 95%
